From PubChem BioAssay
Sfp PPTase inh – inhibitors of Bacillus subtilis Sfp phosphopantetheinyl transferase | Biochemical Sfp PPTase activity, qHTS | AID 1490 | Potency, µM, for the others: max response, negative = inhibition, hits mostly inhibitors | actives 3.5% (n = 310,000) | Q9F4F7; active = well fitted inhibition curve with a large enough effect; inconclusive = small, poorly fitted or top-dose-only effect, or another doubt; inactive = no such curve, though single readings can be large or run the other way;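 also: the enzyme is Sfp with the accession as filed and its product quenches rhodamine fluorescence; potency is read from the fitted curve at half-maximal effect; 0% = enzyme reaction without inhibitor and -100% = no enzyme wells; top concentration of the series not given in the record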
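Compounds were incubated with enzyme (final 15 nM) for 15 min at room temperature before substrate addition started the reaction. Fluorescence at 525 nm excitation, 598 nm emission was recorded immediately and after 30 minutes.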
Lamin A splicing – modulators of lamin A splicing. AID 1487. Potency, µM (top dose mostly 46.1 µM), without a hit: at the top dose ratio change, negative = inhibition, usual class: inhibitors. HeLa LMNA splicing GFP/RFP minigene ratio, 48 h. 0.01% of 200,000 active; active = well fitted inhibition curve with a large enough effect in the signal ratio, with a control signal flat, not every such curve was filed as active; inconclusive = small, poorly fitted or top-dose-only effect, or effect the other way, or a change in a side signal; the % refers to the signal ratio; also: potency is read from the fitted curve at half-maximal effect; % is scaled to controls: 0 for no effect and ±100 for the full control effect
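S3 HeLa stable clones carrying a lamin A-EGFP splicing minigene plus DsRed2 were seeded at 600 cells/well in Opti-MEM with 2% FBS, pin-dosed and incubated 48 h at 37°C. Acumen cytometry (488 nm) gave the GFP/RFP total-intensity ratio.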
G9a inh – inhibitors of human histone lysine methyltransferase G9a | G9a H3K9 monomethylation, AlphaScreen, 2 h | Potency, µM (series often up to 102 µM), without a hit: at the top dose activity, negative = inhibition, usual class: inhibitors | 8.8% of 350,000 active | AID 504332; also: potency is read from the fitted curve at half-maximal effect; % is scaled to controls: 0 for no effect and ±100 for the full control effect; nearly all actives have a fitted effect of over 75% in size
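Signal arises when biotinylated H3K9 peptide, once monomethylated, bridges streptavidin donor and antibody-captured acceptor beads. Enzyme at 20 nM was preincubated 15 min with test compounds; peptide 500 nM and SAM 20 uM then reacted for 2 h.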
JMJD2E inh – inhibitors of human JMJD2E histone demethylase | JMJD2E catalytic domain, FDH-coupled NADH fluorescence (FDH is formaldehyde dehydrogenase) | Potency, µM (series often up to 57.1 µM), inactives show top-dose activity change, negative = inhibition, usual class: inhibitors | 1.6% of 230,000 active | AID 2147 | B2RXH2; active = well fitted inhibition curve with a large enough effect, not every such curve was filed as active; inconclusive = small, poorly fitted or top-dose-only effect, or another doubt; inactive = no such curve, though single readings can be large or run the other way;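 also: potency is read from the fitted curve at half-maximal effect; 0% = wells with enzyme and -100% = buffer wells without enzyme; nearly all actives have a fitted effect of over 50% in size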
miR-21 reporter – miR-21 reporter, rising signal. HeLa miR-21 FLuc reporter, luciferase, 48 h. Potency, µM (highest dose often 38.3 µM), for the others: at the highest dose reporter change, positive = more light. 340,000 tested, under 10 active. AID 2288; active = well fitted rising curve with a large enough effect; inconclusive = small, poorly fitted or top-dose-only effect; inactive = no such curve, though single readings can be large or run the other way;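 further: % of control where 0% means no effect; miR-21 action dims this reporter so a rising signal means less miR-21 action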
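HeLa cells stably expressing CMV-driven firefly luciferase with a downstream miR-21 binding sequence, endogenously expressing miR-21, were treated with titrations (up to about 40uM final) for 48 hours at 37 degree Celsius. Luciferase luminescence was read after lysis.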
ALDH1A1 inh – blocks purified human ALDH1A1 activity; P00352; Purified ALDH1A1, NADH fluorescence, propionaldehyde substrate; Potency, µM (doses to about 75.3 µM), without a hit: at the top dose activity, negative = inhibition, most hits filed as inhibitors; 7.3% of 220,000 active; active = well fitted inhibition curve with a large enough effect, not every such curve was filed as active; inconclusive = small, poorly fitted or top-dose-only effect, or another doubt; inactive = no such curve, though single readings can be large or run the other way;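 also: potency is read from the fitted curve at half-maximal effect; plate controls were no enzyme wells and a reference inhibitor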
An asterisk follows results filed as active; ? = inconclusive; . = no result given; [ ] = dose if it differs, or a comment. Hits are enriched below; roughly 13% of the tested compounds scored in any of these assays. Unless noted, calls follow the shape of the dose curve; as a rule, active = well fitted curve in the direction sought with a large enough effect; inconclusive = small, poorly fitted or top-dose-only effect, or another doubt; inactive = no such curve, though single readings can be large; an effect the other way counts as inactive or inconclusive.

SMILES,Sfp PPTase inh,Lamin A splicing,G9a inh,JMJD2E inh,miR-21 reporter,ALDH1A1 inh
CCOC(=O)c1nn(-c2ccc(F)cc2)c(=O)c2c(N)scc12,50.1µM*,.,28.2µM*,-8.3%,-21.5%,15.1%
CCOC(=O)c1nn(-c2ccc(F)cc2)c(-c2ccccc2)c1C(=O)c1ccccc1,-0.1%,-5.2%,0.2%[0.0925 µM],5.9%,0.7%,11.2µM*
Nc1scc2c(C(=O)O)nn(-c3ccccc3)c(=O)c12,.,.,-24.3%[0.501 µM],.,.,.
CC(C)(C)COS(=O)OCC(C)(C)C,.,.,.,.,.,-4.6%[13.5 µM]
COc1cc(NC(=O)CN2CCN(c3ccccc3O)CC2)c(C)cc1[N+](=O)[O-],-14.3%,-26.4%,10µM*,1.9%,6.3%,?
O=C(CN1CCN(Cc2ccccc2)CC1)Nc1ccc2c(c1)CCC2,12.6%,-18.0%[9.22 µM],?,-12.3%,-7.0%,?
O=C(CN1CCN(c2ccccc2O)CC1)Nc1cc([N+](=O)[O-])ccc1Cl,0.9%,7.6%[46 µM],44.7µM*,-13.6%,3.8%,22.4µM*
O=C(CN1CCN(c2ccccc2O)CC1)Nc1ccc([N+](=O)[O-])cc1Br,-2.5%,7.9%[9.22 µM],?,-12.0%,-1.7%,?
COc1cc(NC(=O)CSc2nc(C)c(C)c(C)n2)c(C)cc1[N+](=O)[O-],20.6%,-17.7%,50.1µM*,-7.6%,-3.3%,2.8%
O=C(CN1CCN(c2ccccc2O)CC1)Nc1ccc2c(c1)CCC2,5.6%,-0.4%,70.8µM*,-28.7%,2.0%,-5.0%

An excerpt from above in order of molecular weight, low to high:
SMILES,Sfp PPTase inh,Lamin A splicing,G9a inh,JMJD2E inh,miR-21 reporter,ALDH1A1 inh
COc1cc(NC(=O)CSc2nc(C)c(C)c(C)n2)c(C)cc1[N+](=O)[O-],20.6%,-17.7%,50.1µM*,-7.6%,-3.3%,2.8%
O=C(CN1CCN(c2ccccc2O)CC1)Nc1cc([N+](=O)[O-])ccc1Cl,0.9%,7.6%[46 µM],44.7µM*,-13.6%,3.8%,22.4µM*
CCOC(=O)c1nn(-c2ccc(F)cc2)c(-c2ccccc2)c1C(=O)c1ccccc1,-0.1%,-5.2%,0.2%[0.0925 µM],5.9%,0.7%,11.2µM*

(next part)
SMILES,Sfp PPTase inh,Lamin A splicing,G9a inh,JMJD2E inh,miR-21 reporter,ALDH1A1 inh
Cc1ccc(C)c(Cn2c(=O)n(-c3ccc(Cl)cc3)c(=O)c3c4c(sc32)CCC4)c1,.,.,-23.2%[59 µM],.,-1.1%,.
CCC(C(=O)Nc1ccc(C(C)C)cc1)n1nc(C)n2c(cc3cc(C)ccc32)c1=O (stereo unspecified),.,.,4.5%[59 µM],.,-8.3%,.
Cc1ccc(C)c(CN2CCCN(Cc3cc(C)ccc3C)S2(=O)=O)c1,-1.8%,-4.0%[46 µM],58.3%,.,-0.1%,.
O=C(C1CCN(S(=O)(=O)c2ccc(-n3cnnn3)cc2)CC1)N1CCN(c2ccccc2)CC1,0.5%,5.2%,-4.5%[12.7 µM],-3.3%,-6.1%,28.2µM*
COc1cccc(/C(O)=C2/C(=O)C(=O)N(CCN3CCOCC3)C2c2cccnc2)c1 (stereo unspecified),-2.7%,-1.2%,?,?,-1.4%,3.55µM*
COc1ccc(/C(O)=C2/C(=O)C(=O)N(CCN3CCOCC3)C2c2cccnc2)cc1OC (stereo unspecified),5.2%,1.1%,?,?,-6.3%,25.1µM*
O=C1C(=O)N(CCc2c[nH]c3ccccc23)C(c2cccnc2)/C1=C(/O)c1ccccc1 (stereo unspecified),23.8%,.,50.1µM*,?,1.3%,?
CC1=CC(C)=Nc2ccc(C)cc2N1,15.2%,4.1%,44.7µM*,-19.6%,-48.0%,-1.0%
Cc1cc(C2(c3cc(C)c(O)c(C(=O)O)c3)OS(=O)(=O)c3ccccc32)cc(C(=O)O)c1O,.,.,.,.,.,13.7%[13.5 µM]
Cc1cc(C2(c3cc(C)c(O)cc3C)OS(=O)(=O)c3ccccc32)c(C)cc1O,.,.,.,.,.,28.2µM*

Three compounds out of the list above, arranged by the number in JMJD2E inh, highest first:
structure,JMJD2E inh
COc1cc(NC(=O)CSc2nc(C)c(C)c(C)n2)c(C)cc1[N+](=O)[O-],-7.6%
O=C(CN1CCN(Cc2ccccc2)CC1)Nc1ccc2c(c1)CCC2,-12.3%
CC1=CC(C)=Nc2ccc(C)cc2N1,-19.6%

(next part)
SMILES,Sfp PPTase inh,Lamin A splicing,G9a inh,JMJD2E inh,miR-21 reporter,ALDH1A1 inh
CNC(=S)N/N=C/c1ccccc1OCC(=O)O,20µM*,.,.,-17.2%,2.6%,.
O=C(CSc1nc2ccccc2s1)N/N=C/c1ccco1,-28.7%,4.4%,7.9%,-1.9%,-7.6%,20µM*
O=C(O)COc1ccccc1/C=N/NC(=O)CSc1nc2ccccc2s1,?,.,70.8µM*,3.2%,-5.0%,.
C/C(=N\NC(=O)CSc1nc2ccccc2s1)c1ccco1,3.6%,?,-6.1%[59 µM],6.9%,-5.9%,2.82µM*
O=C(CSc1nc2ccccc2s1)N/N=C/c1ccc(C(=O)O)cc1,10.9%,.,-29.5%,4.8%,-9.5%,2.7%
O=C(CSCc1ccccc1Cl)N/N=C/c1ccco1,10.8%,?,-16.3%,10.4%,-22.9%,25.1µM*
Cc1ccc(-n2nc3c(c2NC(=O)C(C)(C)C)CS(=O)(=O)C3)cc1,18.3%,.,16.8%,.,-1.5%,.
CC1CCC2C(=O)N3C(CCC(C)[C@@H]3c3ccc(Br)cc3)C(=O)N2C1c1ccc(Br)cc1 (stereo partly specified),-6.2%,.,.,.,.,-3.2%[13.5 µM]
